# Measured affinities in a library of Ab-14 light chain variants

Values reported by Li et al. 2023, doi:10.1038/s41467-023-39022-2 (FLAb copy).

Target: peptide PDVDLGDISGINAS, taken from heptad repeat 2 (HR2) of SARS-CoV-2 spike.

Parent scFv Ab-14: VH joined to VL by three GGGGS repeats. Changes lie in the light chain CDRs alone.
VH: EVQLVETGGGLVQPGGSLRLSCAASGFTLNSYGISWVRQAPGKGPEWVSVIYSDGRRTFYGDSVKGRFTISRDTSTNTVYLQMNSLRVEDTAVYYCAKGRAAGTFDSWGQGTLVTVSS
VL: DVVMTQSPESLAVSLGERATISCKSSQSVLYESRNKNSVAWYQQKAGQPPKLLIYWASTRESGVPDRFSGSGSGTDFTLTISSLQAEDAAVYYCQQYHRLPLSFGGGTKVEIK

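Designed CDR sequences, proposed from the first random library and measured here. Their group label is 14L_GP_HC (GP: Gaussian process model; HC: hill climbing; a sequence that several methods proposed may carry one label only). The scFvs were displayed on barcoded MATa yeast, the peptide on MATalpha yeast. Mating (16 h, 30 °C) was followed by selection of diploids and sequencing of their barcodes. The ratio of observed to expected reads was calibrated, replicate by replicate, on BCL2-family standards whose Kd was known from biolayer interferometry. The assay was run in six technical replicates.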

The parent's light chain CDRs are KSSQSVLYESRNKNSVA, WASTRES, QQYHRLPLS; each variant's own CDRs replace them letter for letter.
The read-out is the apparent dissociation constant on a log10 scale (nM): the lower, the stronger.
The mean shown is taken over the replicates in which the pair was detected.
A pair that was not seen in that replicate is written "nd"; this usually means weak binding, but a binder can also be missed.
In the paper, a design with two or fewer of six values counts as a poor binder.
The range of this assay differs from that of the first round, and the authors advise against merging the two.
The parent sequence was in this pool as ten entries: three were never detected, three once, and four in most replicates, with averages from 0.34 to 2.37.
Three control strains display no target. For all light chain designs, 4% of the pairings with them gave a signal, with a median of 2.64 and one signal in twenty below 1.59, so weak values seen in few replicates may be background. For each scFv, signals with the empty controls are counted beside the result, with their mean in brackets.

| CDR-L1 | CDR-L2 | CDR-L3 | log10 Kd (nM) by replicate | log10 Kd (nM), mean | signal with controls |
|---|---|---|---|---|---|
| KSQQAVLYESRNKNSVA | GASLRES | QQYHRLPLS | nd nd nd 1.39 nd nd | 1.39 | 0 of 18 |
| KSGQGVLYESRNKNSVA | GASTRES | QQYHRLPLM | 0.47 0.11 -0.27 -0.12 -0.21 0.13 | 0.02 | 1 of 18 (1.30) |
| KSSPSTLYESRNKNSVA | HASTRES | QQYHRLPLS | 0.31 0.40 0.32 0.43 0.50 0.36 | 0.39 | 0 of 18 |
| KSFISYLEESRNKNSVA | EASTRES | QQYHRLPLS | 0.33 0.54 nd 0.56 nd 1.11 | 0.64 | 0 of 18 |
| KSGQEVLYESRNKNSVA | GASLRES | QQYHRLPLS | 0.09 -0.21 -0.12 -0.57 -0.27 -0.22 | -0.22 | 0 of 18 |
| LSSISYLYESPNKNSVA | EASTRCS | QQYHRLPLS | 1.20 0.73 0.40 0.60 0.65 0.50 | 0.68 | 1 of 18 (3.34) |
| KLRGSTLYESRNPNSVA | WASTRES | QQYHRLPLS | 0.60 0.39 0.34 0.44 0.08 0.83 | 0.45 | 1 of 18 (1.87) |
| KYYPSYLYESRNKNSVA | QASTRES | QQYHKLPLS | 1.07 0.85 0.87 0.75 0.97 0.99 | 0.92 | 0 of 18 |
| KMSQSWLYESRNKNSVA | HASTREQ | QQYHRLPLS | 0.26 -0.02 0.05 -0.22 -0.05 0.22 | 0.04 | 2 of 18 (2.60) |
| KQSQSYHYESRNKNSVA | GASTRES | QQYHRLPLS | 0.36 0.22 0.14 0.15 0.34 0.32 | 0.25 | 2 of 18 (3.32) |
| KSSQSILYESLNKNSVA | HASTRES | QQYHRLPLS | 0.67 0.71 0.55 0.81 0.68 0.84 | 0.71 | 1 of 18 (1.85) |
| KSSQSDLYESRNKNSVA | GASLRES | QQYHRLPLS | 1.00 1.18 1.06 0.56 1.36 1.00 | 1.03 | 1 of 18 (2.74) |
| KSSPSYLYESRNENSVA | EASTREQ | QQYHRLPLS | 0.22 0.12 0.32 0.13 0.08 0.43 | 0.22 | 0 of 18 |
| KVSISYLEESRNKNSVA | EASTRES | QQYHRLPLS | -0.02 0.01 -0.18 -0.29 -0.09 0.15 | -0.07 | 2 of 18 (2.65) |
| KLRQSTLYESRNKNSVA | GASTRES | QQKHRLPLS | 0.12 0.16 -0.19 -0.46 -0.19 0.14 | -0.07 | 1 of 18 (2.64) |
| KSSQSVLFESRNKNSVA | DASQRES | QQYHRLPLS | 0.14 0.24 0.19 -0.03 0.05 0.04 | 0.10 | 0 of 18 |
| KQSQSLLCESRNKNSVA | DASTRES | QQYHRLPLS | 0.22 0.10 0.11 0.19 0.03 0.25 | 0.15 | 2 of 18 (2.08) |
| KSSQSVKVESRNKNSVA | DASTRES | QQYHRLPLS | -0.02 -0.01 -0.16 -0.20 -0.09 -0.12 | -0.10 | 3 of 18 (3.38) |
| KLRQSTKYESRNQNSVA | YASTRES | QQYHRLPLS | 1.12 1.08 0.54 0.76 0.75 0.81 | 0.84 | 1 of 18 (3.00) |
| KSLQSWLYESRNFNSVA | HASTRED | QQYHRLPLS | 0.39 0.18 0.50 -0.06 nd nd | 0.25 | 1 of 18 (-0.33) |
| KYSQSFLYESRNKNSVA | GASTRES | QEYHRLPLS | 0.79 0.61 0.38 0.54 0.68 0.71 | 0.62 | 1 of 18 (3.65) |
| KVSQSDLYESRNKNAVA | GASTRES | QQYHRLPLS | -0.28 -0.27 -0.26 -0.37 -0.30 -0.17 | -0.28 | 1 of 18 (2.79) |
| KLDQSTKYESRNQNSVA | WASTRES | QQYHRLPLS | 0.49 0.18 0.12 0.28 -0.02 -0.22 | 0.14 | 1 of 18 (1.86) |
| KLRQSTLYESRNKNEVA | DASTRES | QQYHRLPLS | 0.59 0.73 0.26 0.70 0.49 0.56 | 0.55 | 2 of 18 (2.81) |
| KVSISGLYESRMKNSVA | EASTRES | QQYHRLPLS | 0.09 -0.02 -0.38 -0.08 -0.19 -0.20 | -0.13 | 1 of 18 (2.41) |
| KFSQSVLYESRDKNGVA | HASTRES | QQYHRLPLS | -0.43 -0.47 -0.25 -0.71 0.16 -0.20 | -0.31 | 0 of 18 |
| KQSQSVLYESVNKNSVA | DASTRMS | QQYHRLPLS | 0.52 0.18 0.50 0.39 0.56 0.47 | 0.44 | 2 of 18 (2.26) |
| KVSQSELYESGNKNSVA | NASSRES | QQYHRLPLS | 0.75 0.32 -0.12 0.11 0.24 0.35 | 0.28 | 0 of 18 |
| HLSQSVLYESRNKNSVA | NASTRES | QQYHRLPLN | 0.32 0.07 -0.16 -0.17 -0.06 -0.02 | 0.00 | 0 of 18 |
| KIGQGVLYESRNKNSVA | GASQRWS | QQYHRLPLS | 0.47 0.52 0.40 0.52 0.61 0.62 | 0.52 | 1 of 18 (2.00) |
| KFSQSVLYESRNKNAVA | DASTRES | QQYHWLPLS | 0.14 0.02 -0.10 -0.25 -0.15 0.01 | -0.06 | 2 of 18 (2.82) |

Picked from the list: the 5 lowest averages where every replicate gave a value.

{"CDR-L1": "KFSQSVLYESRDKNGVA", "CDR-L2": "HASTRES", "CDR-L3": "QQYHRLPLS", "log10 Kd (nM) by replicate": "-0.43 -0.47 -0.25 -0.71 0.16 -0.20", "log10 Kd (nM), mean": "-0.31", "signal with controls": "0 of 18"}
{"CDR-L1": "KVSQSDLYESRNKNAVA", "CDR-L2": "GASTRES", "CDR-L3": "QQYHRLPLS", "log10 Kd (nM) by replicate": "-0.28 -0.27 -0.26 -0.37 -0.30 -0.17", "log10 Kd (nM), mean": "-0.28", "signal with controls": "1 of 18 (2.79)"}
{"CDR-L1": "KSGQEVLYESRNKNSVA", "CDR-L2": "GASLRES", "CDR-L3": "QQYHRLPLS", "log10 Kd (nM) by replicate": "0.09 -0.21 -0.12 -0.57 -0.27 -0.22", "log10 Kd (nM), mean": "-0.22", "signal with controls": "0 of 18"}
{"CDR-L1": "KVSISGLYESRMKNSVA", "CDR-L2": "EASTRES", "CDR-L3": "QQYHRLPLS", "log10 Kd (nM) by replicate": "0.09 -0.02 -0.38 -0.08 -0.19 -0.20", "log10 Kd (nM), mean": "-0.13", "signal with controls": "1 of 18 (2.41)"}
{"CDR-L1": "KSSQSVKVESRNKNSVA", "CDR-L2": "DASTRES", "CDR-L3": "QQYHRLPLS", "log10 Kd (nM) by replicate": "-0.02 -0.01 -0.16 -0.20 -0.09 -0.12", "log10 Kd (nM), mean": "-0.10", "signal with controls": "3 of 18 (3.38)"}